Legend:
[1] = test system: TOV21G (ovarian cancer) cells; test: In vitro cell proliferation inhibition assay (CellTiter-Glo), TOV21G; assay type: cell-based, human; settings: read-out: TOV21G/IC50, 120 hours
Procedure: (§1) By detecting the effect of compound on cell activity in vitro in the tumor cell lines TOV21G (ovarian cancer) and MV4-11 (leukemia), the effect of compound inhibiting cell proliferation was studied in this assay.
(§2) TOV21G cells and MV4-11 cells were purchased from American Type Culture Collection (ATCC).
TOV21G cells were cultured in MCDB105/M199 medium (containing 15% […]), and used for testing when the cell confluence reaches 85% or more. Each well of a 96-well culture plate was inoculated with about 1000 cells, cultured for 24 hours, and treated with different concentrations (0-10 μM) of compound solution to be tested in triplex. Blank wells (contains medium only) and control wells (seeded cells was not treated with drug) were set. Cells were cultured for 120 hours, 40 μL Cell Titer-Glo solution (Promega, #G7573) were added to each well, incubated with shaking for 20 min in the dark, 100 μL solution was transferred from each well to a 96-well white plate (Corning, #3917), and the luminescence value was read by Biotek Synergy H1 multifunctional microplate reader.

Amino acid sequences for entries named in this document (tags omitted).
UniProt Q13535, whole entry: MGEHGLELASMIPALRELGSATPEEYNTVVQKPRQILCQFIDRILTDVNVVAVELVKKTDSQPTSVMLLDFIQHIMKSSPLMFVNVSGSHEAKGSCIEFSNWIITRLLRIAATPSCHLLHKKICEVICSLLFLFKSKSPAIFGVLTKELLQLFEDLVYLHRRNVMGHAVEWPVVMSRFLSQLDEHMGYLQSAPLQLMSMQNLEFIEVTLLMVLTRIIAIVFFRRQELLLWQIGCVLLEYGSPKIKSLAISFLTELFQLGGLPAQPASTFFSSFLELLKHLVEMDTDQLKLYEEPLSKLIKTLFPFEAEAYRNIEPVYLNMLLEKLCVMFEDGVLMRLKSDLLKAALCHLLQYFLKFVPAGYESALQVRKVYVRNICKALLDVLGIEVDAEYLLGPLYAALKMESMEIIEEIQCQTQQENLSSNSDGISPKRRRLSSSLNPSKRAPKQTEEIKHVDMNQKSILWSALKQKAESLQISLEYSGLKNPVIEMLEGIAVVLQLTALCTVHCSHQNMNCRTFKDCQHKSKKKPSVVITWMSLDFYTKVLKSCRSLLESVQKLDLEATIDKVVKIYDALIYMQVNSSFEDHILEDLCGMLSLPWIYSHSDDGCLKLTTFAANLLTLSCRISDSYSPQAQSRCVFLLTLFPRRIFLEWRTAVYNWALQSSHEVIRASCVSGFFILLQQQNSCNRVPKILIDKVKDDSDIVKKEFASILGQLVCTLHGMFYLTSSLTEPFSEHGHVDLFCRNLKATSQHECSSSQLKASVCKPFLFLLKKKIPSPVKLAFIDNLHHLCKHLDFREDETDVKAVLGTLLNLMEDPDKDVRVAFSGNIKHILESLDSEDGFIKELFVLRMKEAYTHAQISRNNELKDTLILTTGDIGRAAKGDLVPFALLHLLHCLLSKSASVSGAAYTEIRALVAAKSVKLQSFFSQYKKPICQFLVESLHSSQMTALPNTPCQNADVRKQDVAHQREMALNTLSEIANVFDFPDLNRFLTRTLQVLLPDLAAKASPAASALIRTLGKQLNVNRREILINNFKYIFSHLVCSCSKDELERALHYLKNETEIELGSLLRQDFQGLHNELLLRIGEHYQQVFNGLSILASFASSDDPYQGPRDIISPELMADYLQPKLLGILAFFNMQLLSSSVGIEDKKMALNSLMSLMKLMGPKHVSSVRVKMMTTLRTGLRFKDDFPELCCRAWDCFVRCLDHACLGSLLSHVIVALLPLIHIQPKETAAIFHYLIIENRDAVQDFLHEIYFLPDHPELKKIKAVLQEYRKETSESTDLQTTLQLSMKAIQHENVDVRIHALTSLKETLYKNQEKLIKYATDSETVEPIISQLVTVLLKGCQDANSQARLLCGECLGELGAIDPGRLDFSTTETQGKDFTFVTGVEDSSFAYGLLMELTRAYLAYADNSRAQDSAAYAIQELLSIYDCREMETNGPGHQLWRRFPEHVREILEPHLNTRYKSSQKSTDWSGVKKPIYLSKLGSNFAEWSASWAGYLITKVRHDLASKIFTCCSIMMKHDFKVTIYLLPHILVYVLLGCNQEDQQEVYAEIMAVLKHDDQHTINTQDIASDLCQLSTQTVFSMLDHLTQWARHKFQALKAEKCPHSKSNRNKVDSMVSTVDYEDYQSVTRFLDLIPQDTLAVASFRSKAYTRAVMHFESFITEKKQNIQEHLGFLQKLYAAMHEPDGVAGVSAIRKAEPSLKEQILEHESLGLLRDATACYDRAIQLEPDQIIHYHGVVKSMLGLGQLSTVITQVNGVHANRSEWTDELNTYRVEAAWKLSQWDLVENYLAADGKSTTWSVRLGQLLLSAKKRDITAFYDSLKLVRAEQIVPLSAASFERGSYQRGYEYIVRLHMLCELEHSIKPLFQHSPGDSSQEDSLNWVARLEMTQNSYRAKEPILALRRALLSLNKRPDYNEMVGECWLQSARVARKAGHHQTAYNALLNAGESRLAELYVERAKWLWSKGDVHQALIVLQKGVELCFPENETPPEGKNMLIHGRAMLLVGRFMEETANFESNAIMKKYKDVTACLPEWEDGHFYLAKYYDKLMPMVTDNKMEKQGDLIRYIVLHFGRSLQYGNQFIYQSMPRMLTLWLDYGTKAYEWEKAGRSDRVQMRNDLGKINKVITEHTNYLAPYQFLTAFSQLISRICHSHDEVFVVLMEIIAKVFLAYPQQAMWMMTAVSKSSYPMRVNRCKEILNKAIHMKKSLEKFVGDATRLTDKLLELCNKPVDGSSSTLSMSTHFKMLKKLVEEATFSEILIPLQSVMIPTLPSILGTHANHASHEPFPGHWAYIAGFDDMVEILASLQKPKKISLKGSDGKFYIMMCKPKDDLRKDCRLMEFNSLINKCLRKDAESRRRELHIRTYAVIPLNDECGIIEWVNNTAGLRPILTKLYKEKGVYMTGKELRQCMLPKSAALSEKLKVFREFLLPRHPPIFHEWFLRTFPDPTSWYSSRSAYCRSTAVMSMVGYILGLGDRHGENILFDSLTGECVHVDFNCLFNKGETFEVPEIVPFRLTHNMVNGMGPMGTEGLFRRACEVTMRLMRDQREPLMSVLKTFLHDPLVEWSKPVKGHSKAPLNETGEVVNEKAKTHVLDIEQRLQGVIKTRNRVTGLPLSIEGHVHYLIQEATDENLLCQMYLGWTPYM
UniProt Q8WXE1, whole entry partner: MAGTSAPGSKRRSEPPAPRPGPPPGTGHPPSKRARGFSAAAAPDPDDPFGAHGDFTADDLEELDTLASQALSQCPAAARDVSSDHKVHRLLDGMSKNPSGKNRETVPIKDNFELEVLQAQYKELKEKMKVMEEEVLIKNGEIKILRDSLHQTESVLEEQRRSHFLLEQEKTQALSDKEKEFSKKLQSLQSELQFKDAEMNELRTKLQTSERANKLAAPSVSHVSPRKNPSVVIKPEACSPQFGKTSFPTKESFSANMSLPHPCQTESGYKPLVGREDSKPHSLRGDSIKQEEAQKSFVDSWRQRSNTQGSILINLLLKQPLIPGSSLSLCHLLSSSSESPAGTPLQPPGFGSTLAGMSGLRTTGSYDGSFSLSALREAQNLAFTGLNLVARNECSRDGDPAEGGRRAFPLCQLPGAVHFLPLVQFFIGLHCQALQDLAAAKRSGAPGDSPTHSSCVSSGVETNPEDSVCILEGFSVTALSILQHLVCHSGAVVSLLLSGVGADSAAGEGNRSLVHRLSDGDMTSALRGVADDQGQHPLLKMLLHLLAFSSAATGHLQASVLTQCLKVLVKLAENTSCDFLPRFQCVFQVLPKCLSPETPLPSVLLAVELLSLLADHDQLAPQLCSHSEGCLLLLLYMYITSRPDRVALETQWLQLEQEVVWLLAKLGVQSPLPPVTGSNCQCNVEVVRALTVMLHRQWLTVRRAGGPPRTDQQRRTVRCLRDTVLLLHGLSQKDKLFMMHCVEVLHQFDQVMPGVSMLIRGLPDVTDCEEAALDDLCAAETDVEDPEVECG

ATR kinase = ATR kinase (Homo sapiens (Human), UniProt Q13535); test: ATR kinase activity assay (time-resolved fluorescence, p53 substrate phosphorylation); settings: read-out: ATR/IC50
Procedure: Biotinylated protein derived from p53 (Eurofins, art. No.: 14-952) was phosphorylated with ATR kinase. The amount of phosphorylated protein was determined by time-resolved fluorescence in this assay. The amount of phosphorylated protein was detected by anti-p53-phospho-(serine 15)-K-specific antibody (Cisbio, art. No.: 61GSTDLA) and d2 labeled anti-GST antibody (Cisbio, art. No. 61P08KAE). Before the experiment, the following working solution was prepared as required: 1× reaction buffer (20 mM HEPES PH8.0, 1% glycerol, 0.01% Brij-35), dilution buffer (20 mM HEPES PH8.0, 1% glycerol, 0.01% Brij-35, 5 mM DTT and 1% BSA), stop solution (20 mM HEPES PH8.0, 1% glycerol, 0.01% Brij-35, 250 mM EDTA), detection buffer (50 mM HEPES pH7.0, 150 mM NaCl, 267 mM KF, 0.1% sodium cholate, 0.01% Tween-20, 0.0125% sodium azide). […]
4× gradient dilution of compound solutions was prepared with 1× reaction buffer to obtain 9 compound solutions of different concentrations, and 2.5 μL 4× gradient dilution of compound solutions was added to a 384-well analysis plate (784075, Greiner). […] Finally, 5 μL test mixture (0.084 ng/μL Anti-phospho-p53(ser15)-K and 5 ng/μL Anti-GST-d2) was added to the 384 well analysis plate, incubated overnight at room temperature, and the fluorescence signal was detected with ENVISION (Perkinelmer) instrument (excitation wavelength: 320 nm, emission wavelength: 665 nm and 615 nm). […]

MV4-11 (leukemia) cells = test: In vitro cell proliferation inhibition assay (CellTiter-Glo), MV4-11; assay type: cell-based, human; settings: read-out: MV4-11/IC50, MV4-11 cells, 120 hours
Procedure: as §1, §2
MV-4-11 cells were cultured in IMDM medium (containing 20% FBS), each well of a 96-well culture plate was inoculated with about 10000 cells, and treated with different concentrations (0-10 μM) of compounds to be tested in triplex. Blank wells (containing medium only) and control wells (inoculated with cells but not treated with drug) were set. Cells were cultured for 120 hours, 40 μL Cell Titer-Glo solution was added to each well, incubated with shaking for 20 min in the dark, 100 μL solution was transferred from each well to a 96-well white plate, and the luminescence value was read by Biotek Synergy H1 multifunctional microplate reader. Inhibition rate (%)=100%×(control well−test well)/(control well−blank well)

SMILES	IC50 [1] [µM]	IC50 (ATR kinase) [µM]	IC50 (MV4-11 (leukemia) cells) [µM]
CNc1nc2cc(F)ccc2n1-c1nc(-c2c(C)nn(C3CCNCC3)c2C)cc(N2CCOC[C@H]2C)n1	0.66	0.015	0.64
CNc1nc2cc(F)ccc2n1-c1nc(-c2c(C)nn(C3CCN(C)CC3)c2C(F)(F)F)cc(N2CCOC[C@H]2C)n1	0.77	0.017	0.25
CNc1nc2cc(F)ccc2n1-c1nc(-c2c(C)nn(C3CCCNC3)c2C)cc(N2CCOC[C@H]2C)n1 (some centres unmarked)	0.74	–	0.84
